# In patent US20220152045A1 (priority 2012, published 2022):
# Values joined by “and” are separate entries in the source; they are usually repeats but may differ in a detail not shown here. Equal values may be shown once. Read-outs that look alike come from different tables or passages of the source.
# Tests used:
# [1] = test system: surgery patients at the age of 20 or older and younger than 65; details: with remifentanil hydrochloride
# [2] = test system: surgery patients at the age of 20 or older and younger than 65; details: Group B, Compound B 12 mg/kg/h i.v. continuous, with remifentanil hydrochloride
# [3] = test system: surgery patients at the age of 65 or older; details: with remifentanil hydrochloride
# [4] = test system: surgery patients at the age of 65 or older; details: Group D, Compound B 4 mg/kg/h i.v. continuous, with remifentanil hydrochloride
# patients = assay: Clinical trials of the Examples taken together (85 cases of patients in total)
# [5] = after stopping the administration, Examples 2 and 4, elderly adult or not
Compound,"Time until loss of consciousness (average value) ([1]; Group A1, Compound B 6 mg/kg/h i.v. continuous, benzenesulfonate)","Time until loss of consciousness (average value) ([1]; Group A2, Compound B 12 mg/kg/h i.v. continuous)","Time until loss of consciousness (average value) ([1]; Group A3, Compound B 21 mg/kg/h i.v. continuous)","Time until loss of consciousness (average value) ([1]; Group A4, Compound B 30 mg/kg/h i.v. continuous)",Time until loss of consciousness (average value) [2],"Time until loss of consciousness (average value) ([3]; Group C1, Compound B 4 mg/kg/h (Table 5 prints 6) i.v. continuous)","Time until loss of consciousness (average value) ([3]; Group C2, Compound B 8 mg/kg/h (Table 5 prints 12) i.v. continuous)","Time until loss of consciousness (average value) ([3]; Group C3, Compound B 12 mg/kg/h (Table 5 prints 21) i.v. continuous)",Time until loss of consciousness (average value) [4],Angialgia (patients; 85 cases of patients in total),"Hypotension whose causal relationship with the active ingredient cannot be denied, number of cases (patients; 85 cases of patients in total)",Average time until it was determined that the patient can leave the surgery room (patients; [5]),Average time until the patient opened eyes (patients; [5])
"COC(=O)CC[C@@H]1N=C(c2ccccn2)c2cc(Br)ccc2-n2c(C)cnc21.O=S(=O)(O)c1ccccc1 [Compound B, Methyl 3-[(4S)-8-bromo-1-methyl-6-(2-pyridinyl)-4H-imidazo[1,2-a][1,4]benzodiazepin-4-yl]propanoate benzenesulfonate]",108.0 s and 108.2 s,70.3 s,65.8 s,65.4 s,72.8 s,115.2 s,72.5 s,57.6 s,100.3 s,–,–,–,–
"methyl 3-[(4S)-8-bromo-1-methyl-6-(2-pyridinyl)-4H-imidazo[1,2-a][1,4]benzodiazepin-4-yl]propanoate or a salt thereof",–,–,–,–,–,–,–,–,–,not observed,9 cases,≤ 30 min,≤ 15 min
